From PubChem BioAssay AID504326 (The Scripps Research Institute Molecular Screening Center, 2011) come the findings set out here.

Protein sequences, listed by entry. Tags and fused reporters are not part of them.
UniProt P35372, whole entry, looked up: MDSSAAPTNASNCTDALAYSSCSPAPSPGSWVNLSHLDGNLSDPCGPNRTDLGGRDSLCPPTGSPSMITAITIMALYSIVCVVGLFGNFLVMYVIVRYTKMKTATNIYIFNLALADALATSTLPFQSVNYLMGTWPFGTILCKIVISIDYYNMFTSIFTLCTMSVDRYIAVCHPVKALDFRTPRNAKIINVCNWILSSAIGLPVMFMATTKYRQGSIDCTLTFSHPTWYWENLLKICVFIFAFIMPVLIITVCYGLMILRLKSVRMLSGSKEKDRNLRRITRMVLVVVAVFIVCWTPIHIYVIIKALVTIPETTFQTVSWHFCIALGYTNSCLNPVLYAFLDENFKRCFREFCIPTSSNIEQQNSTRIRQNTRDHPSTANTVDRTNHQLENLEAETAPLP
UniProt P41143, whole entry, looked up: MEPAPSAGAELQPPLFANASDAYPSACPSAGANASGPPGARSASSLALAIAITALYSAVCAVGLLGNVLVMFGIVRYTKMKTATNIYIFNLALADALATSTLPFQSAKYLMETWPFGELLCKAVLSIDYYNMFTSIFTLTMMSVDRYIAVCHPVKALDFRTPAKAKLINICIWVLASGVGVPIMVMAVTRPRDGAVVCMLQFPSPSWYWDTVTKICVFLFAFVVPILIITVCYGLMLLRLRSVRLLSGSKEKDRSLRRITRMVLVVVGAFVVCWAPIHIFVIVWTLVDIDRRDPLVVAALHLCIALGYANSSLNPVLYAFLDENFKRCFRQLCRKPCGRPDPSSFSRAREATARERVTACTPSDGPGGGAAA

This is a selection; strong and weak results do not stand in their true shares. Activity calls are given as the source filed them. Rule as the data show it: active = activation above about 18%; inactive = the rest.

The test deals with Mu-type opioid receptor (Homo sapiens) + Delta-type opioid receptor (Homo sapiens) (UniProt P35372+P41143). Kind of test: inducers of mu-delta opioid receptor heterodimers – cell-based, luminescence, primary screen (AID 504326).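 Also: 0% = vehicle-treated cells and 100% = reference agonist.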 To be noted: cells, OPRM1-OPRD1 heterodimerization, at 9.3 µM, hits give high values.
`NC(=O)CC(NC(=O)Cc1cccc2ccccc12)c1ccc(NC2CCN(Cc3ccccc3)CC2)c([N+](=O)[O-])c1` (stereo not drawn): the activation was inactive: -0.26%.

Regarding `N=c1n(CCN2CCOCC2)c2ccccc2n1CC(O)COc1ccccc1` (stereo not drawn), the activation is inactive: -4.15%.

As to `Fc1ccc2c(c1)nnn2C1CCN(Cc2nnnn2C2CCCCC2)CC1`, the activation is inactive: -0.69%.

On to `COC(=O)[C@@H](Cc1ccccc1)NC(=O)Cn1cnc2c(SC)nc(N)nc21`, for which the activation was inactive: -2.76%.

For `COC(CNC(=O)CC1C(=O)N(Cc2ccccc2)C(C)c2nc3ccccc3n21)OC` (stereo not drawn), the activation was inactive: -1.51%.

With `CC(C(O)c1ccccc1)N(C)CCn1cnc2c1c(=O)n(C)c(=O)n2C` (stereo not drawn), the activation is inactive: -3.68%.

As to `C[C@H](NC(=O)N1CCn2c1nc1ccccc12)C(=O)NCc1ccc2c(c1)OCO2`, the activation was inactive: -2.35%.

For the molecule `CCN(Cc1ccccc1)C(=O)Cn1cnc2c1c(=O)n(C)c(=O)n2C`, the activation was inactive: -2.37%.

For `CCN(CC)CCn1c(=N)n(CC(O)COc2ccccc2)c2ccccc21` (stereo not drawn), the activation is inactive: -2.07%.

For `COC(=O)[C@H](CCSC)NC(=O)Cn1cnc2c(SC)nc(N)nc21`, the activation was inactive: -5.33%.

`O=C1NCN(c2ccccc2)C12CCN(c1nnnn1-c1ccccc1)CC2`: the activation was inactive: 0.32%.

With `CN(C)C(=O)Cn1c(SCC(=O)N2CCCc3ccccc32)nc2ccccc21`, the activation was inactive: 0.56%.

For the molecule `CS(=O)(=O)c1cc([N+](=O)[O-])c2no[n+]([O-])c2c1`, the activation was inactive: 2.97%.

With `Cc1ccc(/C=N\NC(=O)Cn2c(C)nc3ccccc32)o1`, the activation is inactive: -1.56%.

`Cn1c(=O)c2c(ncn2CC(=O)Nc2ccc3c(c2)OCO3)n(C)c1=O`: the activation is inactive: 1.77%.

Take `O=C(Cn1cnc2ccccc21)N1CCc2ccccc21`: the activation is inactive: 1.26%.

Consider `Cn1c(=O)n(CC(=O)Nc2ccc(F)cc2)c2ccccc21`, for which the activation was inactive: -1.09%.

With `C/C(=N\NC(=O)Cn1c(-c2ccccn2)nc2ccccc21)c1cccc(O)c1`, the activation was inactive: -1.9%.

`CCN1CCC(Nc2ccnc3cc(Cl)ccc23)CC1`: the activation is inactive: -1.83%.

`CN(C(=O)Cn1c(Cl)nc2c1c(=O)n(C)c(=O)n2C)C1CCS(=O)(=O)C1` (stereo not drawn): the activation was inactive: -0.22%.

Turning to `CCOP1(=S)c2c(C)nn(CCC#N)c2N=C(c2ccccc2F)N1C` (stereo not drawn), the activation is inactive: -2.57%.

For `O=C(Nc1nc2ccccc2n1CCN1CCOCC1)c1ccc(Cn2cc([N+](=O)[O-])cn2)o1`, the activation was inactive: -1.52%.

As for `N#Cc1ccc(NC(=O)Cn2c3[n+](c4ccc(C(F)(F)F)cc42)CCCCC3)cc1`, the activation is inactive: -1.75%.

Consider `CCC(C)[C@H](NC(=O)N1CCn2c1nc1ccccc12)C(=O)NCCc1ccc(OC)c(OC)c1` (stereo partly drawn), for which the activation was inactive: -1.2%.

For `O=P(Nc1nccs1)(Oc1ccccc1)Oc1ccccc1`, the activation is inactive: 0.36%.

Turning to `Cc1ccccc1NC(=O)Cn1c(NCC(C)O)nc2ccccc21` (stereo not drawn), the activation is inactive: -2.55%.

As to `CCc1nc2ccccc2n1CC(=O)Nc1cc(C)on1`, the activation is inactive: -0.83%.

For `CC(C)c1ccc(NC(=O)C2CC(=O)Nc3nc4ccccc4n32)cc1` (stereo not drawn), the activation was inactive: -0.93%.

Consider `Cc1nc2ccccc2n1CC(=O)N/N=C/c1cccnc1`, for which the activation is inactive: -0.98%.

As to `O=P(Nc1nccs1)(c1ccccc1)c1nc2ccccc2s1` (stereo not drawn), the activation is inactive: -6.28%.

For the molecule `CCN(CC)CCn1c(C)nc2ccccc21`, the activation was inactive: -2.41%.

For the molecule `Cn1c(=O)c2c(ncn2CC(=O)N2CCN(S(=O)(=O)c3ccc(Cl)cc3)CC2)n(C)c1=O`, the activation was inactive: 0.43%.

Consider `c1ccc2c(c1)nc1n2CCN1`, for which the activation was inactive: -2.46%.

Turning to `Cc1ccc2c(c1)C1CN(C)CCC1N2C(=S)Nc1ccc(OC(F)F)cc1` (stereo not drawn), the activation was inactive: -0.63%.

As for `CC(=O)Nc1nc2ccccc2n1CCN(C)C`, the activation is inactive: -2.16%.

For the molecule `CC(C)[C@H](NC(=O)N1CCn2c1nc1ccccc12)C(=O)N[C@@H](C(=O)O)c1ccccc1`, the activation is inactive: -2.61%.

Consider `O=C(Cn1cnc2c(NCc3ccccc3)ncnc21)NCC1CCCO1` (stereo not drawn), for which the activation was inactive: -2.38%.

For `O=C(Cn1cnc2c(NCc3ccccc3)ncnc21)NCc1ccccn1`, the activation is inactive: -2.87%.

For `CC1CCC2C(=O)N(c3ccc(NC4CCN(Cc5ccccc5)CC4)c([N+](=O)[O-])c3)C(=O)C2C1` (stereo not drawn), the activation is inactive: 0.82%.

As to `CCCC(=O)Nc1nnc(/C=C/c2ccc(OC)cc2)s1`, the activation is inactive: -1.81%.

Take `CC(=O)Nc1ccc2c(c1)nc1n2CCN(C2CCCCC2)C1`: the activation is inactive: -1.55%.

With `CCN(CC)CCn1c(NC(=O)c2ccc(Cl)cc2)nc2ccccc21`, the activation was inactive: 5.27%.

Consider `Cn1c(=O)n(CC(N)=O)c2ccccc21`, for which the activation is inactive: -0.96%.

Consider `COc1cc(C2NCCC3(OCCO3)C2(C)C)cc(OC)c1OC` (stereo not drawn), for which the activation was inactive: 0.57%.

Take `O=C(Cn1c(-c2ccccn2)nc2ccccc21)N/N=C/c1ccccn1`: the activation was inactive: 2.07%.

On to `O=C(CCCCCNC(=O)N1CCn2c1nc1ccccc12)NCc1ccccc1Cl`, for which the activation is inactive: -2.93%.

Consider `O=C(Cn1c(NCCO)nc2ccccc21)NCC1CCCO1` (stereo not drawn), for which the activation was inactive: -0.85%.

As to `Cc1ccc2c(c1)C1CN(C)CCC1N2S(=O)(=O)c1cc(C(F)(F)F)ccc1Cl` (stereo not drawn), the activation was inactive: 0.98%.

`O=C(Cn1c(S(=O)(=O)Cc2ccccc2)nc2ccccc21)N1CCCCC1`: the activation was inactive: -0.02%.

As to `COCCN1CCn2c(nc3cc(NC(=O)c4cccs4)ccc32)C1`, the activation is inactive: -0.36%.

For `COc1cccc(CNc2nc3ccccc3n2CCN2CCCCC2)c1`, the activation is inactive: -0.08%.

As for `O=C(Nc1ccccc1)N1CCn2c(nc3ccccc32)C1`, the activation is inactive: -2.15%.

As for `O=C(Nc1ccc2c(c1)nc1n2CCN(C2CCCCC2)C1)c1ccco1`, the activation is inactive: 1.26%.

Consider `O=C(CSc1nc2ccccc2n1CC(=O)N1CCCC1)Nc1ccc2c(c1)OCO2`, for which the activation was inactive: 1.14%.

For the molecule `CCOC(=O)CC[C@H](NC(=O)Cn1cnc2c(OCc3ccccc3)ncnc21)C(=O)OCC`, the activation was inactive: -1.99%.

Consider `COc1ccc(CNC(=O)[C@H](C)NC(=O)N2CCn3c2nc2ccccc23)cc1`, for which the activation was inactive: -2.36%.

`COc1cccc(CNC(=O)[C@H](CC(C)C)NC(=O)N2CCn3c2nc2ccccc23)c1`: the activation is inactive: -0.05%.

In the case of `CCOP(=O)(Nc1cccc2ccccc12)OCC`, the activation is inactive: 0.35%.
